Reference: PubChem BioAssay AID504937 (National Center for Advancing Translational Sciences (NCATS), 2011)
The entries are a selection whose mix differs from that of the whole data set. The source made the active and inactive calls. The call rests on the fitted dose curve; in most records, active means well fitted inhibition curve with a large enough effect; inconclusive means small, poorly fitted or top-dose-only effect; inactive means no such curve, though single readings can be large or run the other way.

The chains behind the UniProt entries cited, without tags or fusion partners. Residues count along the entry.
UniProt P17405, 47-631 limits assumed: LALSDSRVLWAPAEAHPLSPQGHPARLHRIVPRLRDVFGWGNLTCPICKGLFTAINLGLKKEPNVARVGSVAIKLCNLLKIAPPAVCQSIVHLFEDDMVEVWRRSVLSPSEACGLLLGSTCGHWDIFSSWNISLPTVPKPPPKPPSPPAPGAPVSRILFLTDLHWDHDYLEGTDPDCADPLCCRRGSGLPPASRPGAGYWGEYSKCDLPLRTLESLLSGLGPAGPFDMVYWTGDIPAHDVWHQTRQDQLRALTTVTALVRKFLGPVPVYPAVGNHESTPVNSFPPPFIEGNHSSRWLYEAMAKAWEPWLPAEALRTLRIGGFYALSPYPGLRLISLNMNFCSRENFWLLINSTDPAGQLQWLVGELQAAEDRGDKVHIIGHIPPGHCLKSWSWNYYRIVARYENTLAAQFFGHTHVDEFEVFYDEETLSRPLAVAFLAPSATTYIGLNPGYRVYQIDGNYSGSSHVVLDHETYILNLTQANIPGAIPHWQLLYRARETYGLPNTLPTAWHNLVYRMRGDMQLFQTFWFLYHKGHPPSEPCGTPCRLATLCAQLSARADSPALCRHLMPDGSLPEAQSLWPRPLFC

What follows are compounds tested against Sphingomyelin phosphodiesterase (Homo sapiens) (UniProt P17405) (assay: Inhibitors of Secretory Acid Sphingomyelinase (S-ASM): qHTS). Conditions: placental ASM, HMU-PC fluorogenic substrate (series up to 57.5 µM), 60 min; at 57.5 µM (top of the series).

**Q.** How did the activity change, negative = inhibition turn out when O=[N+]([O-])c1cc([N+](=O)[O-])c(Nc2ccccn2)c([N+](=O)[O-])c1 was run?
**A.** inactive: -7.64%
